## scFv variants of Ab-95 (light chain) against a SARS-CoV-2 spike peptide

The target is the same throughout: PDVDLGDISGINAS, from the HR2 region of SARS-CoV-2 spike.

Parent: Ab-95, a human scFv built as VH, a 15-residue (Gly4Ser)3 linker, VL. Only the CDRs of the light chain vary.
VH: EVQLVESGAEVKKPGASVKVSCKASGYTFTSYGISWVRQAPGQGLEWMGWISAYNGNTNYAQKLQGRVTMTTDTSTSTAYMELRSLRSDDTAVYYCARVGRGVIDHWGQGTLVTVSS
VL: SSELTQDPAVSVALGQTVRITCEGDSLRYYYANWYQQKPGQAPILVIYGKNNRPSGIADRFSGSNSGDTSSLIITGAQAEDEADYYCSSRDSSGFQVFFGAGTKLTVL

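The parent was found by panning a naive human phage display library on the peptide. AAYL52 was designed without a model: most single CDR substitutions and a random sample of double and triple ones. The scFvs were displayed on barcoded MATa yeast, the peptide on MATalpha yeast. After mating in shaken culture at 30 °C for 16 h, diploids were selected and their barcode pairs sequenced. The ratio of observed to expected reads was calibrated, replicate by replicate, on BCL2-family standards whose Kd was known from biolayer interferometry. There are three technical replicates.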

The parent's light chain CDRs are EGDSLRYYYAN, GKNNRPS, SSRDSSGFQVF; each variant's own CDRs replace them letter for letter.
The read-out is the apparent dissociation constant on a log10 scale (nM): the lower, the stronger.
"nd" means that the variant was in the library but no mating with the target was seen in that replicate; the authors take this as a sign of poor binding, and no number exists.
Nonspecific signal, from three strains lacking the peptide, appeared in 28% of pairings of library AAYL52, centred on 3.91 (5% of these signals below 2.90); values are not corrected for it. For each scFv, signals with the empty controls are counted beside the result, with their mean in brackets.

| CDR-L1 | CDR-L2 | CDR-L3 | log10 Kd, replicates | signal with controls |
|---|---|---|---|---|
| EGVSARYYYAN | GKNNRPS | LSRDSSGFQVF | nd nd nd | 1 of 9 (3.38) |
| EGDELWYYYAN | GKNNRPS | SSRDSSGFQVF | 3.89 nd nd | 0 of 9 |
| EGDSLRYYWWN | GKNNRPS | SSRDSSGFTVF | 3.60 4.58 3.88 | 3 of 9 (3.85) |
| EGDSLRYLYAN | GKNNRPS | SSRDSSGFQIF | 2.70 2.69 2.48 | 2 of 9 (3.96) |
| EGDSLRYLYAN | GKNNRPS | SSCDSCGFQVF | 2.50 2.61 1.99 | 1 of 9 (3.85) |
| EGDSLRYYHAN | GKNNEPS | SKRDSSGFQVF | 3.71 3.01 1.81 | 3 of 9 (3.90) |
| EGNSLRYYYAN | GKNTRPS | SSRDSSFFQVF | nd nd nd | 4 of 9 (4.39) |
| QGDSLRYYYAN | GKNNRPC | SSYDSSGFQVF | nd nd nd | 2 of 9 (4.25) |
| EGDSLRYPYAM | GKNNRPS | SSSDSSGFQVF | nd nd nd | 2 of 9 (3.57) |
| EGDSLRLYYAN | GKHNRPS | SHRDSSGFQVF | nd nd nd | 2 of 9 (3.25) |
| EGDMLRYYYAN | GKNNRPS | SSRDFSGWQVF | nd 5.01 3.27 | 2 of 9 (3.53) |
| EGRSLRYYYAN | GKNNRPS | SSRRPSGFQVF | 2.28 2.67 2.83 | 3 of 9 (3.81) |
| EGDSLRYYYYN | GWNNRPS | WSRDSSGFQVF | nd 4.36 nd | 0 of 9 |
| EGCSLRYYYAN | GKNNRPS | SSRDSSGFPVF | 3.70 nd nd | 3 of 9 (3.59) |
| EGDSLRYYYAN | HDNNRPS | SSRDSSGFQVM | 3.12 2.93 4.03 | 2 of 9 (3.49) |
| EGDSLRYYYAN | GKQNRPS | STRDSSGVQVF | 3.10 2.81 3.23 | 6 of 9 (3.81) |
| EGDSLRYYYAN | GKNNSPS | SKRDSSQFQVF | 2.76 3.19 2.42 | 2 of 9 (4.94) |
| EGQSLRYYYAN | GKNNRPM | SQRDSSGFQVF | nd 3.69 nd | 2 of 9 (4.61) |
| ECDSLRYYYAN | GKVNRQS | SSRDSSGFQVF | 4.70 nd 4.30 | 4 of 9 (3.97) |
| CGISKRYYYAN | GKNNRPS | SSRDSSGFQVF | 5.00 3.74 nd | 2 of 9 (3.86) |
| EGKSLRYYYAN | GKNNRPI | SSRDSSGFQVF | 2.74 2.33 2.74 | 1 of 9 (4.90) |
| EGDSLKYYYAN | GKNNRPS | SSRDSSGAFVF | 3.38 2.34 1.90 | 5 of 9 (3.66) |
| EIDSRRYYYAN | GKNNRPS | SSRDSSGFQVV | 2.81 3.33 3.55 | 1 of 9 (3.57) |
| EGDSLFYTYAN | GKINRPS | SSRDSSGFQVF | nd nd 3.49 | 5 of 9 (4.14) |
| EGDSLRYYYPN | GKNNRPS | SSRDSSGCQVP | nd nd nd | 4 of 9 (4.20) |
| EGDSLQYYYAN | GKNNRPS | SSRQKSGFQVF | nd nd nd | 1 of 9 (4.12) |
| ELDSLRYYYAN | GKNNIPS | SSRDSFGFQVF | 4.10 nd nd | 3 of 9 (3.32) |
| EGDSLWYYKAN | GKNNRGS | SSRDSSGFQVF | 3.91 nd nd | 0 of 9 |
| EWDSLRYYYAN | GKNNRPS | SSRKSHGFQVF | nd nd nd | 3 of 9 (4.10) |
| EHDSLRYYYAN | YKNNRPS | SIRDSSGFQVF | nd nd nd | 1 of 9 (4.08) |
| EGDSLRYYYAN | GKNHVPS | SSRDSSGFQVY | 3.33 2.63 4.03 | 3 of 9 (3.76) |
| EGDSLMYYYAN | GKGNRPR | SSRDSSGFQVF | 3.34 3.94 3.06 | 2 of 9 (3.93) |
| EGDTLRYYYAN | GKNNRTS | SSRISSGFQVF | 4.24 4.15 nd | 4 of 9 (4.05) |
| EGDSERYYYAN | TKNNRPS | SSRDSSGFIVF | 4.14 4.86 nd | 3 of 9 (4.20) |
| YGDSLRYYYAN | GKNNRQS | SSRDSSGFVVF | 3.12 3.31 2.80 | 2 of 9 (3.62) |
| EGDSLRYYYAN | GMNNRPS | SKRDSVGFQVF | nd nd nd | 0 of 9 |
| EGDSLRAYYAC | GKNNRPS | RSRDSSGFQVF | 2.58 nd 3.99 | 0 of 9 |
| ENDVLRYYYAN | GKNNRPS | SSRDSSGFQVW | nd 4.36 2.87 | 2 of 9 (3.98) |
| EGDSLREYYAN | GKNNRPS | SCRDSSGFSVF | 3.11 3.30 3.03 | 6 of 9 (4.01) |
| EGDSLRIYYAN | GKNNRPS | WSRTSSGFQVF | 5.29 nd nd | 1 of 9 (3.60) |
| EGDSLRYYYVN | GKNNRPS | SSRDSSNFTVF | 4.07 nd nd | 0 of 9 |
| EGESLRYTYAN | GKNNRPF | SSRDSSGFQVF | 1.42 1.44 1.01 | 6 of 9 (3.69) |
| EGESLRYYYAN | GKNNRPS | SSRDSSGFQVI | 4.42 3.43 nd | 3 of 9 (4.62) |
| EGDSLRYYYAN | GKNNRIS | SSSDSSGFQVV | 3.87 3.78 4.15 | 3 of 9 (4.12) |
| EGDSLRYYYAN | GKNNKPS | PSRDSSVFQVF | 3.88 3.47 2.66 | 6 of 9 (4.00) |

Values reported by Engelhart et al. 2022, doi:10.1038/s41597-022-01779-4 (FLAb copy).